ChEMBL document CHEMBL1133540, “4-Aminoquinolines: novel nociceptin antagonists with analgesic activity” (J Med Chem, 2000)

Amino acid sequences for entries named in this document (tags omitted). A change or cut given only in a name is not applied to a line headed by its entry.
UniProt P41146: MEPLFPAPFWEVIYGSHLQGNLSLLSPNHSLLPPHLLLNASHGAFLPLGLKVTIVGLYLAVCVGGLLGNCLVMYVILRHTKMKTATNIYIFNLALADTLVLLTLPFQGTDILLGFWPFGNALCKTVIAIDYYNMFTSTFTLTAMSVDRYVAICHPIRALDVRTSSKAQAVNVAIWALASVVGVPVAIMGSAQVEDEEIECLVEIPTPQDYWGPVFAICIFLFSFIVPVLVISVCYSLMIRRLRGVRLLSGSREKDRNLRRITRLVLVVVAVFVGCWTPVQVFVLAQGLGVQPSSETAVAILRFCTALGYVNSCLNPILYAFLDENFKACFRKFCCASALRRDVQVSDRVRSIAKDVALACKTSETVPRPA

What follows are molecules tested against Nociceptin receptor (Homo sapiens, UniProt P41146) (assay: Ability to displace [3H]nociceptin ( 0.5 nM ) binding from Opioid receptor like 1 expressed in HeLa cells.).
Format: cell-based
Procedure, shortened: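 Membranes from HeLa cells expressing human ORL1 (25 μg protein/mL) in 50 mM Tris pH 8.5 with 2 mM EDTA, 0.1 mM p-aminophenylmethanesulfonyl fluoride and 2 mg/mL BSA. Incubated 30 min at room temperature with 0.5 nM [3H]nociceptin and varied compound concentrations. Bound radioactivity was collected by filtration and counted by scintillation. Nonspecific binding was set with 1 μM unlabeled nociceptin. Ki reported as mean ± SE, n=3-6.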

Ki [nM] | Compound
11.8 | COc1ccc(OCc2ccccc2C(=O)Nc2ccc3nc(C)cc(N)c3c2)cc1
13.2 | Cc1cc(N)c2cc(NC(=O)c3ccccc3COc3ccccc3Cl)ccc2n1
2.3 | Cc1cc(N)c2cc(NC(=O)c3ccccc3COc3ccc([N+](=O)[O-])cc3)ccc2n1
